Target: T1, Serine/threonine-protein kinase Chk1 (Homo sapiens, UniProt O14757)
T1 sequence (O14757 whole entry): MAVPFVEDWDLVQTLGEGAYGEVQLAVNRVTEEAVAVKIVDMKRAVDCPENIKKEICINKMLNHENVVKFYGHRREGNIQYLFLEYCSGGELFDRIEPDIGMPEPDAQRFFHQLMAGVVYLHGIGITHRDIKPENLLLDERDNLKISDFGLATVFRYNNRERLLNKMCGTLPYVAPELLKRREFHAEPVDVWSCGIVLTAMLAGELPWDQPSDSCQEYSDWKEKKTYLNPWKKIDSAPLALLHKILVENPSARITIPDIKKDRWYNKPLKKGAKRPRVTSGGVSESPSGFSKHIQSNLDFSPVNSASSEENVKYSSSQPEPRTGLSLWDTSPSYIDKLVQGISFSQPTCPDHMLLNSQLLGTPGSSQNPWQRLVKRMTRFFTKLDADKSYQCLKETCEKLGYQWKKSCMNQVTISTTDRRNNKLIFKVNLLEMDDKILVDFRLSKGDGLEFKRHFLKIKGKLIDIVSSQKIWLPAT
Assay: Inhibition of recombinant His-CHK1 expressed in baculovirus after 2 hrs by scintillation proximity assay

- IC50: 9 nM
SMILES: Cc1cc(Nc2cc(C3CCCNC3)nc3c(-c4cnn(C)c4)cnn23)sn1 (stereo unspecified)
